Literature values, collected in patent US20160220689A1, “MACROMOLECULES OF DENDRIMER-PLATINUM CONJUGATES” (priority 2013, published 2016).

Conditions: patients receiving the drug; cited from earlier work

oxaliplatin [reference compound]
patients developing peripheral neurotoxicity: 85-95%
